# Earlier results, collected in PMC3280956, “DOGS: Reaction-Driven de novo Design of Bioactive Compounds” (PLoS Computational Biology, 2012).
# Molecular target: Thrombin
# Details: cited from earlier work
compound,measurement,value
CC1CCN(C(=O)C(Cc2cccc(C(=N)N)c2)NS(=O)(=O)c2ccc3ccccc3c2)CC1 (stereo not shown) [NAPAMP],Ki,6.2 nM
